Values of other authors in publication PMC6838683, “Discovery of Human Signaling Systems: Pairing Peptides to G Protein-Coupled Receptors” (Cell, 2019).
Like-named read-outs stand apart in the source and are kept apart here.

Molecular target: human GPCRs
Set-up: method as in Guide to Pharmacology database
Settings: max reported value, ref Guide to Pharmacology database, cited from earlier work
Description: Supplement mmc1.xlsx, sheet "HumanGPCRLigands" | column: pKi_value; pKd_value; pEC50_value; pIC50_value

Structure (SMILES): CC(=O)OCC[N+](C)(C)C [acetylcholine]
- pKi_value (receptor acm2_human (CHRM2, P08172)): 6.5
- pKi_value (receptor acm3_human (CHRM3, P20309)): 5.4
- pKi_value (receptor acm4_human (CHRM4, P08173)): 5.6
- pKi_value (receptor acm5_human (CHRM5, P08912)): 6.1
